{"sequences": {"note": "Chains of the proteins cited; added tags and fusions are not shown.", "UniProt P08183, whole entry": "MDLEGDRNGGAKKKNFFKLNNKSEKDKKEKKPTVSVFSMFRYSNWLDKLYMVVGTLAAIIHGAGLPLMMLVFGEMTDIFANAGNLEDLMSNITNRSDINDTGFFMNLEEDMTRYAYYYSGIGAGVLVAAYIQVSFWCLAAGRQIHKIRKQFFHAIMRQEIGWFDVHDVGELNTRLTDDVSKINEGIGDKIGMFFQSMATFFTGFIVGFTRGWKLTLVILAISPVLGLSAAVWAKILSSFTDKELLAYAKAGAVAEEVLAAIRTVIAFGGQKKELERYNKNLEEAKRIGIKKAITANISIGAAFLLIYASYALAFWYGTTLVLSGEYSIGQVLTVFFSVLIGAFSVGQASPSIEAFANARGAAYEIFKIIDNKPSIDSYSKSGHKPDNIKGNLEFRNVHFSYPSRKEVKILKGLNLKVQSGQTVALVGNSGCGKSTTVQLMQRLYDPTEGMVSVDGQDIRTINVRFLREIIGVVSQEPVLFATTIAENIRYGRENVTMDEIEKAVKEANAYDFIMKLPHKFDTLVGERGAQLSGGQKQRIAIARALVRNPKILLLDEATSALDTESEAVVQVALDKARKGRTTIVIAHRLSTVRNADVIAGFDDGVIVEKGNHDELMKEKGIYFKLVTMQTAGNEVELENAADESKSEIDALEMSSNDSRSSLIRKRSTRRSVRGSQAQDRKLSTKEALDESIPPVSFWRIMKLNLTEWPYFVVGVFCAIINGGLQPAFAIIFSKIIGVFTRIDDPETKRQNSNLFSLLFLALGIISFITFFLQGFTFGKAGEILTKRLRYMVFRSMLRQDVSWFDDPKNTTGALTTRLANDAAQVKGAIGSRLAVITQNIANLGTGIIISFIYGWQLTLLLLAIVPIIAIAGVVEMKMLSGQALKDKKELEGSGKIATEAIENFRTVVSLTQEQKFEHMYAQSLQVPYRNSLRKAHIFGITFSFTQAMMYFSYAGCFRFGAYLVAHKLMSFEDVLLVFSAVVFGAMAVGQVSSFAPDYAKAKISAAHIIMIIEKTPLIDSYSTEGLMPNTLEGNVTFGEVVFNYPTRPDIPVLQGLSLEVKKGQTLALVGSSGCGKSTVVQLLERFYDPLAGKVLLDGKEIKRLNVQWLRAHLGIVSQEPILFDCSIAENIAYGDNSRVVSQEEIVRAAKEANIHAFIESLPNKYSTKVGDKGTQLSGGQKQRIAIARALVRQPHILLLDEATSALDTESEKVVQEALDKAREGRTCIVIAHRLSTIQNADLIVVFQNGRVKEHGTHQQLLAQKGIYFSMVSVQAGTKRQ"}, "source": "patent US20100279329A1", "about": "“METHOD FOR THE STABILISATION OF PURIFIED P-GLYCOPROTEIN” (UNIVERSITY OF BRIGHTON, priority 2007, published 2010)", "target": "P-glycoprotein (P-gp) (Homo sapiens, UniProt P08183)", "test": "ATPase activity, varying drug concentration at constant ATP concentration (dose response)", "settings": "2 mM ATP, glycerol purified P-gp", "text": "The assay was set up, conducted and read in conditions identical to those described above. […] The equation for the general dose response curve is given below (Equation 2).\nEquation 2: The general dose response curve equation, where • V=rate of hydrolysis expressed as μmol/min/mg Pi, • Vmax=maximum rate of hydrolysis, • Vmin=minimum rate of hydrolysis, • [D]=concentration of drug, and • EC50=concentration of drug required to produce half maximum rate of hydrolysis.\nThe highest concentration was similar to that found in the reaction volume of an ATPase assay when a 20% (w/v) buffer was used (10 mM-300 mM). […] Both varying ATP and varying drug assays were performed.", "data": [{"smiles": "COC(=O)C1=C(C)NC(C)=C(C(=O)OCCN(C)Cc2ccccc2)C1c1cccc([N+](=O)[O-])c1", "note": "(stereo not drawn) [nicardipine, reference compound]", "values": [{"measurement": "EC50", "setting": "EC50 of nicardipine stimulated ATPase activity (maltose experiment), FIG. 20, curves without and with 300 mM maltose", "value": 30, "unit": "µM"}, {"measurement": "EC50", "setting": "EC50 of nicardipine stimulated ATPase activity in the presence of trehalose, 300 mM trehalose (FIG. 12)", "value": 19.2, "unit": "µM"}, {"measurement": "EC50", "setting": "EC50 of nicardipine stimulated ATPase activity, absence of trehalose", "value": 24.2, "unit": "µM"}]}]}
